Values of other authors as cited in US20040116535A1, “Use” (priority 2001, published 2004).

Settings: 200 mg 3 times daily; at the end of the 8 hour dose interval; cited from earlier work

For “1-(2,6-dimethylphenoxy)-propanamine [mexiletine]”, the “patients with subtherapeutic plasma level” value is given as ~50%.
